Experimental data: US20260384438A1, “PYRROLOPYRIMIDINE CARBOXAMIDES” (published 2026)

The chains behind the UniProt entries cited, without tags or fusion partners. Residues count along the entry.
UniProt Q04771, 21-509 limits assumed: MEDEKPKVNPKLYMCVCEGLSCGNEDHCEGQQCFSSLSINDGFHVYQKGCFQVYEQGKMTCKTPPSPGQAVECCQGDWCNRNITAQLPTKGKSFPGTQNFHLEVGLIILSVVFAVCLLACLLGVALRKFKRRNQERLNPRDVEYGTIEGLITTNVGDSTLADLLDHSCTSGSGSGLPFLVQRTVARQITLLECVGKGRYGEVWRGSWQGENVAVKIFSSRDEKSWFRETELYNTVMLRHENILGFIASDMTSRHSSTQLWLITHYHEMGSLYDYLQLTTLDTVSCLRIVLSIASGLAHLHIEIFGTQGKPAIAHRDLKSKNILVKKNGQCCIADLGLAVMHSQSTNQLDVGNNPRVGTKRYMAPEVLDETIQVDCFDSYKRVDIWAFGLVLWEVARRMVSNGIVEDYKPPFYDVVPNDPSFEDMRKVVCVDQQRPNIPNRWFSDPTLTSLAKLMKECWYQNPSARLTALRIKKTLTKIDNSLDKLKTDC
UniProt O14965, whole entry: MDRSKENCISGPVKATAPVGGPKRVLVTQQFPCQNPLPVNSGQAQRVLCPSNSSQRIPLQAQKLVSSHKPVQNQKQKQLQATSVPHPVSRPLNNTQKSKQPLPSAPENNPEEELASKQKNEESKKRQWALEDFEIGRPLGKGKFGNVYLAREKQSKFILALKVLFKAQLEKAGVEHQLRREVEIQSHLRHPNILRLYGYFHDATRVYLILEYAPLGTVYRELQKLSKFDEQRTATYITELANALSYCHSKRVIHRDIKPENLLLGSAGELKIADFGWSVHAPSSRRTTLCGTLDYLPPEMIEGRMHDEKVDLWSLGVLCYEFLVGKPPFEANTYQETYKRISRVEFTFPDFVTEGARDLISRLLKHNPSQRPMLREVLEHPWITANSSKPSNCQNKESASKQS
UniProt O94921, whole entry: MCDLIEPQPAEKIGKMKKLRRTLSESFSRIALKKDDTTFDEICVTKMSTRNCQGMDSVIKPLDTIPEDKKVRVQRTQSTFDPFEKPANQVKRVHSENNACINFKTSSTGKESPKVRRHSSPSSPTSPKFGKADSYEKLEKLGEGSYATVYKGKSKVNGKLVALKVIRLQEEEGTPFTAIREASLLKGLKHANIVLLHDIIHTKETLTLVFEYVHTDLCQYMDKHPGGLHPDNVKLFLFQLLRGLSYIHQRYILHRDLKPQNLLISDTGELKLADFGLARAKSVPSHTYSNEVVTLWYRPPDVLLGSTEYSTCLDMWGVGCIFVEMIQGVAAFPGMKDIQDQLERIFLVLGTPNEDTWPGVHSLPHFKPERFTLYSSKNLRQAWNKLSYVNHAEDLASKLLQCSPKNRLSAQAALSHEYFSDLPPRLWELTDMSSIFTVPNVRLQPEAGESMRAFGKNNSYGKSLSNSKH
UniProt P08069, 960-1367 limits assumed: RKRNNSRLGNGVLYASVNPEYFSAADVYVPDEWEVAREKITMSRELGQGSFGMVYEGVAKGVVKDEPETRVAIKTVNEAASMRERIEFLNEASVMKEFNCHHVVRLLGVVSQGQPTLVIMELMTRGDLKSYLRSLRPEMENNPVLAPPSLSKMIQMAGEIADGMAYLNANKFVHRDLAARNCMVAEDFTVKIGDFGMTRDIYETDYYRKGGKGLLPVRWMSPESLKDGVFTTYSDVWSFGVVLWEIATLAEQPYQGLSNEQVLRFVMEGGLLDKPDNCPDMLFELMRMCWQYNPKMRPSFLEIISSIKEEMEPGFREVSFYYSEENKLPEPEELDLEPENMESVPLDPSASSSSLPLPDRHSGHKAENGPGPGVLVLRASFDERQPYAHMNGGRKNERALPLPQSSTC
UniProt P53671, whole entry: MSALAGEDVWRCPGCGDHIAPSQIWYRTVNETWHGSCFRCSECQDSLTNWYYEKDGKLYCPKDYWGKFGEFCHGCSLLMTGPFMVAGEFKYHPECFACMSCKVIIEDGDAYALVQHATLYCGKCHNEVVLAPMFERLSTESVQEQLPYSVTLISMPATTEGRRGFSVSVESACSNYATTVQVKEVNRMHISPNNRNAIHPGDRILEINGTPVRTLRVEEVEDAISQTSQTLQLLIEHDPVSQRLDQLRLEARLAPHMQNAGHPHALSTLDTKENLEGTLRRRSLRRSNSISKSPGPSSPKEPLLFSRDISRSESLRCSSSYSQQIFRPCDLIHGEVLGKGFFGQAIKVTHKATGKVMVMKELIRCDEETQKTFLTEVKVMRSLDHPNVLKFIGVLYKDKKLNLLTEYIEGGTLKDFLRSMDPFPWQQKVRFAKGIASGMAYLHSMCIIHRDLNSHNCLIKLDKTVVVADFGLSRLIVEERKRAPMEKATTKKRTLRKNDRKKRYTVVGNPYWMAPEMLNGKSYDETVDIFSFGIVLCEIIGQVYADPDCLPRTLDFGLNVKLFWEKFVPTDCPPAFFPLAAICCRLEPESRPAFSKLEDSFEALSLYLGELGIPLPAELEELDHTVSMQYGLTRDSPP
UniProt P42356, whole entry: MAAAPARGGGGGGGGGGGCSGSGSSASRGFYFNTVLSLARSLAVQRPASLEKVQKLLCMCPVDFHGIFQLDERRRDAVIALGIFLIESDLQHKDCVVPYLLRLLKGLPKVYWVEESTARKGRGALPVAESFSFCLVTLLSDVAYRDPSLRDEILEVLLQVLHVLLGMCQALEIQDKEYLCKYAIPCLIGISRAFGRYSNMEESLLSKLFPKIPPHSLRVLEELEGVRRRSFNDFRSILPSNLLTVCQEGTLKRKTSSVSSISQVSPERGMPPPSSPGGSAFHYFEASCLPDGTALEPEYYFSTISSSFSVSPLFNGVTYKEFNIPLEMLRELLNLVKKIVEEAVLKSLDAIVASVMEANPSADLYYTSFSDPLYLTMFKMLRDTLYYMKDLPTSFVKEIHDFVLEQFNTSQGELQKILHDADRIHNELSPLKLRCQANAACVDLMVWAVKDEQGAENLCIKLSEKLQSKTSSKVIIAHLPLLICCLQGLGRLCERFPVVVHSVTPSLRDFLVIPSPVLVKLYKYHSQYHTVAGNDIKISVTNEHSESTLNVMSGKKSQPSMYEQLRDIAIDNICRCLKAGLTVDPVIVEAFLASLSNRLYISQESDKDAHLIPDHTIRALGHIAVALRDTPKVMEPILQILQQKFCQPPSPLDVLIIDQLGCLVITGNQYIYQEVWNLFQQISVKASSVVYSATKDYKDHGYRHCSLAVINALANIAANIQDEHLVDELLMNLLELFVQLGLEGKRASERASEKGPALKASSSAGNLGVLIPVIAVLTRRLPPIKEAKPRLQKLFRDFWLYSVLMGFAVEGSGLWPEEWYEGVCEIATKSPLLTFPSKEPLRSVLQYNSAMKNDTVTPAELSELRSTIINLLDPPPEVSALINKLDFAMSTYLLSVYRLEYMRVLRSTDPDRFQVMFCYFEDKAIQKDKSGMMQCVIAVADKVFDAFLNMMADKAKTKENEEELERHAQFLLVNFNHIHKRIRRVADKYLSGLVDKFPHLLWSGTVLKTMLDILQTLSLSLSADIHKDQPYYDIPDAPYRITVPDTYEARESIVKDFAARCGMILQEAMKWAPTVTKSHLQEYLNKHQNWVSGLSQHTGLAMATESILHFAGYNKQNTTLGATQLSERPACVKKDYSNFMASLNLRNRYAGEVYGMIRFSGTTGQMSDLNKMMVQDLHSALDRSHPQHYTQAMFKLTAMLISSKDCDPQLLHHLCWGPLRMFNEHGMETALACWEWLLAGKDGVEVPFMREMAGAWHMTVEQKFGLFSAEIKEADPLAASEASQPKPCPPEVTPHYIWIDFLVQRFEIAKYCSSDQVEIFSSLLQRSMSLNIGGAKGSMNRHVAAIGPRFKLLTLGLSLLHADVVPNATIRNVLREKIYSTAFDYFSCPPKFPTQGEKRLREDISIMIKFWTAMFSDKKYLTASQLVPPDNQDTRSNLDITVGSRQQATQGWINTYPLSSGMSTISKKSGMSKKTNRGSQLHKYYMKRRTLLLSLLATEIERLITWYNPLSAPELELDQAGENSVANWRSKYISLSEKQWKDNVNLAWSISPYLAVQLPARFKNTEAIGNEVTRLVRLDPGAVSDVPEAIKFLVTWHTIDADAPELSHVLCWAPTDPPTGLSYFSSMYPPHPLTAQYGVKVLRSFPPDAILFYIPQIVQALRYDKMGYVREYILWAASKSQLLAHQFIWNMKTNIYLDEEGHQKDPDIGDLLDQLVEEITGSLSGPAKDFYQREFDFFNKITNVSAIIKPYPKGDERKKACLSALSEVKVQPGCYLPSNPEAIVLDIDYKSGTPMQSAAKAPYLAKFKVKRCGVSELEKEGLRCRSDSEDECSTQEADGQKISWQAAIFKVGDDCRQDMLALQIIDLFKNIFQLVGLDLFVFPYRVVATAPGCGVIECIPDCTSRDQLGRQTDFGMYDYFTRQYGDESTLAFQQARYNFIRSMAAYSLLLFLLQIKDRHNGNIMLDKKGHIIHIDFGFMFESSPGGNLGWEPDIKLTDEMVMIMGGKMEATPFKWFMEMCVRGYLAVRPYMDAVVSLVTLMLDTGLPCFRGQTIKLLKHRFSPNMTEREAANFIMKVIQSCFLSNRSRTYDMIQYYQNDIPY
UniProt P51812, whole entry: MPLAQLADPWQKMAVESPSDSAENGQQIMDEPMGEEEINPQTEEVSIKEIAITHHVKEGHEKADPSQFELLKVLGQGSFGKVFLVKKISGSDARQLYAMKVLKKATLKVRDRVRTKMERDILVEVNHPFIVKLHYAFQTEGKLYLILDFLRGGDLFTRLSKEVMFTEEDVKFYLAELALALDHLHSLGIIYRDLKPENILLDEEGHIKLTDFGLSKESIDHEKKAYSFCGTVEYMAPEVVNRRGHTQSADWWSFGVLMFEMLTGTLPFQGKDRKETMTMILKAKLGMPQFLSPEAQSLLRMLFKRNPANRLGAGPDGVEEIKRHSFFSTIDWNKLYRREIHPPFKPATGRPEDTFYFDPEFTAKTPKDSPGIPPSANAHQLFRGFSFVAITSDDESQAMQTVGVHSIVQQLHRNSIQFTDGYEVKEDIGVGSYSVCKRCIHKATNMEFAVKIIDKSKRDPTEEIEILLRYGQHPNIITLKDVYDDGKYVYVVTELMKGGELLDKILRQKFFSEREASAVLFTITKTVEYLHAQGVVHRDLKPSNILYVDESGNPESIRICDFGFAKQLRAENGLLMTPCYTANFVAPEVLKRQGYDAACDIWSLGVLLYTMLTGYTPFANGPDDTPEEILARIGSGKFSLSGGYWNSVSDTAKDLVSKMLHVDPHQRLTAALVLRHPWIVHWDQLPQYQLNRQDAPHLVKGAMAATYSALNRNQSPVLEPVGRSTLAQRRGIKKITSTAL
UniProt Q9H2G2, whole entry: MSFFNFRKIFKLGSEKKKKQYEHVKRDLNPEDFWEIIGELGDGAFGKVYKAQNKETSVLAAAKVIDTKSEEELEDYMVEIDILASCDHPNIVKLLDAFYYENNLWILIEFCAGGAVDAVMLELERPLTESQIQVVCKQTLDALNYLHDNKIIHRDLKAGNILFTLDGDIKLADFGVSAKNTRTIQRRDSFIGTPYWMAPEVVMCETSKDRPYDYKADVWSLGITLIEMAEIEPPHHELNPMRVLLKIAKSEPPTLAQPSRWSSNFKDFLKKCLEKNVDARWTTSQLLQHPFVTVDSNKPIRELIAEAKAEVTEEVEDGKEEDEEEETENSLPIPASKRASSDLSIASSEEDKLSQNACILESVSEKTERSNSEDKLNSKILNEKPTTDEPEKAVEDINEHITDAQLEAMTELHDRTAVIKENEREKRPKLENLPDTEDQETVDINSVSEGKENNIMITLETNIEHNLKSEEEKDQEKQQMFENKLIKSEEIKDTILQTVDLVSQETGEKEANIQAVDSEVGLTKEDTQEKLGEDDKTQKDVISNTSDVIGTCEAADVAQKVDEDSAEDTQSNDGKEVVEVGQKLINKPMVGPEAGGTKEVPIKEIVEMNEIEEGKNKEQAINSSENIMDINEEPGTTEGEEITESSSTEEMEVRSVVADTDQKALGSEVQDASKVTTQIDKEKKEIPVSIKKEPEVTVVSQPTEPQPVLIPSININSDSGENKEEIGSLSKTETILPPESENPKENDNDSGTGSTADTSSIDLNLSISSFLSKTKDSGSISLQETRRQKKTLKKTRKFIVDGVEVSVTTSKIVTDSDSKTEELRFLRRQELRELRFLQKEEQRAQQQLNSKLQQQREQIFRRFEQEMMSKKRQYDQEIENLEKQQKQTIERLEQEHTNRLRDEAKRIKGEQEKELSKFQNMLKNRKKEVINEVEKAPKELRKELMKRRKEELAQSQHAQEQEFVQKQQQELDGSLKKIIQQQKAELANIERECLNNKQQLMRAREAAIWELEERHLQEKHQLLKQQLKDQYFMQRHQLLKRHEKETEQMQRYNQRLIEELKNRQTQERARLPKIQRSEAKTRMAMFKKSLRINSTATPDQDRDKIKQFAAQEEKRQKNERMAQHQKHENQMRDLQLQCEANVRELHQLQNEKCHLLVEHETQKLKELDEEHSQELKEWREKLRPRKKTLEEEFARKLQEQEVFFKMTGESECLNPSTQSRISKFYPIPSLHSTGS

Legend:
Experiment in all cases: KAT chemical proteomics
ACVR1 = ACVR1 (Homo sapiens, UniProt Q04771)
ACVRL1 = ACVRL1 (Homo sapiens, UniProt P37023)
ATR = ATR (Homo sapiens, UniProt Q13535)
AurKA = AurKA (Homo sapiens, UniProt O14965)
BCR = test system: BCR
BMPR1A = BMPR1A (Homo sapiens, UniProt P36894)
BTK = BTK (Homo sapiens, UniProt Q06187)
BUB1B = BUB1B (Homo sapiens, UniProt O60566)
CAMK2D = CAMK2D (Homo sapiens, UniProt Q13557)
CDC42BPA = CDC42BPA (Homo sapiens, UniProt Q5VT25)
CDK1 = CDK1 (Homo sapiens, UniProt P06493)
CDK14 = CDK14 (Homo sapiens, UniProt O94921)
CDK2 = CDK2 (Homo sapiens, UniProt P24941)
CLK4 = CLK4 (Homo sapiens, UniProt Q9HAZ1)
CMPK1 = CMPK1 (Homo sapiens, UniProt P30085)
IGF1R = IGF1R (Homo sapiens, UniProt P08069)
LIMK2 = LIMK2 (Homo sapiens, UniProt P53671)
MAPK3 = MAPK3 (Homo sapiens, UniProt P27361)
MAPK6 = MAPK6 (Homo sapiens, UniProt Q16659)
MARK2 = MARK2 (Homo sapiens, UniProt Q7KZI7)
MAST3 = MAST3 (Homo sapiens, UniProt O60307)
NEK2 = NEK2 (Homo sapiens, UniProt P51955)
NME1 = NME1 (Homo sapiens, UniProt P15531)
PDPK1 = PDPK1 (Homo sapiens, UniProt O15530)
PI4KA = PI4KA (Homo sapiens, UniProt P42356)
PKN1 = PKN1 (Homo sapiens, UniProt Q16512)
PPP4C = test system: PPP4C
PRKCI = PRKCI (Homo sapiens, UniProt P41743)
RET = RET (Homo sapiens, UniProt P07949)
RIOK1 = RIOK1 (Homo sapiens, UniProt Q9BRS2)
RIPK1 = RIPK1 (Homo sapiens, UniProt Q13546)
RPS6KA2 = RPS6KA2 (Homo sapiens, UniProt Q15349)
RPS6KA3 = RPS6KA3 (Homo sapiens, UniProt P51812)
RPS6KB1 = RPS6KB1 (Homo sapiens, UniProt P23443)
SIK3 = SIK3 (Homo sapiens, UniProt Q9Y2K2)
SLK = SLK (Homo sapiens, UniProt Q9H2G2)
STK33 = STK33 (Homo sapiens, UniProt Q9BYT3)
STRADA = STRADA (Homo sapiens, UniProt Q7RTN6)
STRADB = STRADB (Homo sapiens, UniProt Q9C0K7)
TNK2 = TNK2 (Homo sapiens, UniProt Q07912)

`Cc1nc(C(F)(F)F)c2c(C(N)=O)c(N)n(-c3c(C)ccc(O)c3C)c2n1` (single isomer, unassigned) gave an RB50 (ACVR1) of 55.5 nM, an RB50 (ACVRL1) of 12 nM and an RB50 (ATR) greater than 50 µM. The RB50 (AurKA) was greater than 50 µM, the RB50 (BCR) was 119 nM and the RB50 (BMPR1A) was 46.6 nM. For the same compound, the RB50 (BTK) was greater than 50 µM, the RB50 (BUB1B) was greater than 50 µM and the RB50 (CAMK2D) was greater than 50 µM. It also gave an RB50 (CDC42BPA) greater than 50 µM, an RB50 (CDK1) greater than 50 µM and an RB50 (CDK14) greater than 50 µM. The RB50 (CDK2) was greater than 50 µM, the RB50 (CLK4) was greater than 50 µM and the RB50 (CMPK1) was greater than 50 µM. It also gave an RB50 (IGF1R) greater than 50 µM, an RB50 (LIMK2) greater than 50 µM and an RB50 (MAPK3) greater than 50 µM. The RB50 (MAPK6) was greater than 50 µM, the RB50 (MARK2) was greater than 50 µM and the RB50 (MAST3) was greater than 50 µM. For the same compound, the RB50 (NEK2) was greater than 50 µM, the RB50 (NME1) was greater than 50 µM and the RB50 (PDPK1) was greater than 50 µM. The RB50 (PI4KA) was greater than 50 µM, the RB50 (PKN1) was greater than 50 µM and the RB50 (PPP4C) was greater than 50 µM. The RB50 (PRKCI) was greater than 50 µM, the RB50 (RET) was greater than 50 µM and the RB50 (RIOK1) was greater than 50 µM. The RB50 (RIPK1) was greater than 50 µM, the RB50 (RPS6KA2) was greater than 50 µM and the RB50 (RPS6KA3) was greater than 50 µM. For the same compound, the RB50 (RPS6KB1) was greater than 50 µM, the RB50 (SIK3) was greater than 50 µM and the RB50 (SLK) was greater than 50 µM. For the same compound, the RB50 (STK33) was greater than 50 µM, the RB50 (STRADA) was greater than 50 µM and the RB50 (STRADB) was greater than 50 µM. It also gave an RB50 (TNK2) of 241 nM.
